Columns and labels:
[1] = system: CEA.691- and MAGE3.112-specific CTL lines; assay: Th2 cytokine (IL10/IL5) production by human CTL lines, ELISA; assay type: cell-based
[2] = system: CEA.691- and MAGE3.112-specific CTL lines; assay: IFNγ release (in situ capture ELISA) from human CTL lines with peptide-pulsed .221A2.1 APC; conditions: for peptide dose giving significant IFNγ release (>100 pg/well): dose titration; for Th1 cytokines: minimum peptide concentration required to induce 100 pg/well of IFNγ: human CTL lines
[3] = system: MAGE2.157-, HBV Pol.455- and HIV Pol.476-specific CTL lines; assay: IFNγ release (in situ capture ELISA) from murine CTL lines with peptide-pulsed .221A2.1 APC; assay type: cell-based, HLA-A2.1/K^bxs transgenic mice
[4] = target: HLA-B7 (B*0702) (Homo sapiens, UniProt P01889); assay: HLA-B7 (B*0702) peptide binding, competition with radiolabeled SS 5-13a (L7→Y) peptide
[5] = system: MAGE2.170-specific CTL line; assay: IFNγ release (ELISA) from human MAGE2.170-specific CTL line with GM3107 cells as APC; assay type: cell-based; conditions: 0.01 μg/ml peptide dose
[6] = system: p53.149M2- and p53mu.184-specific CTL; assay: IFNγ release from CTL specific for p53 epitopes (p53.149M2, p53mu.184); assay type: cell-based; conditions: for fold lower concentration than wildtype peptide inducing significant IFNγ production / IFNγ release at suboptimal dose: p53.149M2 CTL; for immunogenicity relative to wildtype p53mu.184: IFNγ production
[7] = system: p53.149M2-specific CTL; assay: IL10 production by p53.149M2-specific CTL; assay type: cell-based; conditions: p53.149M2 CTL
[8] = target: HLA-A2.1 (human) (UniProt P04439)
[9] = system: p53.261 epitope-reactive CTL; assay: Immunization of HLA-A2.1/K^bxd transgenic mice with p53.261 or analogs, IFNγ in situ ELISA of restimulated CTL; assay type: in vivo; conditions: for peptide concentration giving IFNγ production of 100 pg/well, compared to CTL induced and expanded with wildtype peptide: CTL expanded in vitro with the immunizing analog; for fold lower dose of wildtype peptide to induce 100 pg/well of IFNγ: immunized with analog, stimulated and tested in vitro with wildtype peptide
[10] = system: Meth A/A2.1K^b tumor cells; assay: IFNγ release of analog-induced CTL against endogenously processed p53.261 on Meth A tumor cells; assay type: cell-based, mouse; conditions: Meth A/A2.1K^b clone vs parental Meth A
[11] = system: wildtype p53.261 peptide-reactive CTL; assay: Elispot precursor frequency of wildtype-reactive CD8+ cells from immunized mice; assay type: in vivo; conditions: CD8+ cells stimulated with WT peptide
[12] = target: HLA-A2.1 (human), P04439

CC[C@H](C)[C@H](N)C(=O)N[C@@H](CCSC)C(=O)N[C@H](C(=O)NCC(=O)N[C@@H](Cc1c[nH]cn1)C(=O)N[C@@H](CC(C)C)C(=O)N[C@H](C(=O)NCC(=O)N[C@H](C(=O)O)C(C)C)C(C)C)[C@@H](C)CC [CEA.691 H5]
Th2 cytokines: minimum peptide concentration required to induce 50 pg/ml of IL10 or IL15 [1]: 10^−1 μg/ml | peptide dose giving significant IFNγ release (>100 pg/well) [2]: 0.01 ng/mL | Th1 cytokines: minimum peptide concentration required to induce 100 pg/well of IFNγ [2]: 10^−7 μg/ml

CC[C@H](C)[C@H](N)C(=O)N[C@@H](CCSC)C(=O)N[C@@H](CCSC)C(=O)NCC(=O)N[C@H](C(=O)N[C@@H](CC(C)C)C(=O)N[C@H](C(=O)NCC(=O)N[C@H](C(=O)O)C(C)C)C(C)C)C(C)C [CEA.691 M3]
Th2 cytokines: minimum peptide concentration required to induce 50 pg/ml of IL10 or IL15 [1]: 1 µg/mL | peptide dose giving significant IFNγ release (>100 pg/well) [2]: 0.01 ng/mL | Th1 cytokines: minimum peptide concentration required to induce 100 pg/well of IFNγ [2]: 10^−5 μg/ml | fold increase in potency of IFNγ release compared to wildtype peptide ([2]; molar basis): 100,000 fold

CC(C)C[C@H](NC(=O)[C@H](CCCNC(=N)N)NC(=O)[C@@H]1CCCN1C(=O)[C@@H](NC(=O)[C@H](Cc1ccc(O)cc1)NC(=O)[C@H](CCCNC(=N)N)NC(=O)[C@H](CO)NC(=O)[C@H](CC(C)C)NC(=O)CN)C(C)C)C(=O)O [HBV Pol.455 P7]
Th1 cytokines: minimum peptide concentration required to induce 100 pg/well of IFNγ [3]: 10^−2 μg/ml

CC[C@H](C)[C@H](N)C(=O)N[C@@H](CC(C)C)C(=O)N[C@@H](Cc1c[nH]cn1)C(=O)N[C@@H](CCC(=O)O)C(=O)N1CCC[C@H]1C(=O)N[C@H](C(=O)N[C@@H](Cc1c[nH]cn1)C(=O)NCC(=O)N[C@H](C(=O)O)C(C)C)C(C)C [HIV Pol.476 H3]
Th1 cytokines: minimum peptide concentration required to induce 100 pg/well of IFNγ [3]: 1 µg/mL

CC[C@H](C)[C@H](NC(=O)CNC(=O)[C@H](Cc1ccccc1)NC(=O)[C@H](Cc1ccccc1)NC(=O)[C@H](CC(C)C)NC(=O)[C@H](CCC(N)=O)NC(=O)[C@H](CC(C)C)NC(=O)[C@@H](N)Cc1ccc(O)cc1)C(=O)N[C@@H](CCC(=O)O)C(=O)N[C@H](C(=O)O)C(C)C [MAGE2.157 F5]
Th1 cytokines: minimum peptide concentration required to induce 100 pg/well of IFNγ [3]: 10^−2 μg/ml

CC[C@H](C)[C@H](NC(=O)CNC(=O)[C@H](Cc1ccccc1)NC(=O)[C@@H](NC(=O)[C@H](CC(C)C)NC(=O)[C@H](CCC(N)=O)NC(=O)[C@H](CC(C)C)NC(=O)[C@@H](N)Cc1ccc(O)cc1)[C@@H](C)CC)C(=O)N[C@@H](CCC(=O)O)C(=O)N[C@H](C(=O)O)C(C)C [MAGE2.157 I5]
Th1 cytokines: minimum peptide concentration required to induce 100 pg/well of IFNγ [3]: 10^−4 μg/ml

CC[C@H](C)[C@H](NC(=O)[C@H](CC(=O)O)NC(=O)[C@H](CC(C)C)NC(=O)[C@H](Cc1c[nH]cn1)NC(=O)[C@H](CO)NC(=O)[C@@H](NC(=O)[C@@H]1CCCN1C(=O)[C@@H](N)C(C)C)[C@@H](C)CC)C(=O)N[C@@H](CC(C)C)C(=O)O [MAGE2.170D7]
change in HLA-B7 binding compared to wildtype peptide [4]: > 100 fold | IFNγ response compared to wildtype peptide [5]: greater than the wildtype peptide

CC[C@H](C)[C@H](NC(=O)[C@H](CCC(=O)O)NC(=O)[C@H](CC(C)C)NC(=O)[C@H](Cc1c[nH]cn1)NC(=O)[C@H](CO)NC(=O)[C@@H](NC(=O)[C@@H]1CCCN1C(=O)[C@@H](N)C(C)C)[C@@H](C)CC)C(=O)N[C@@H](CC(C)C)C(=O)O [MAGE2.170E7]
IFNγ response compared to wildtype peptide [5]: greater than the wildtype peptide

CC[C@H](C)[C@H](NC(=O)CNC(=O)[C@H](CC(C)C)NC(=O)[C@H](Cc1c[nH]cn1)NC(=O)[C@H](CO)NC(=O)[C@@H](NC(=O)[C@@H]1CCCN1C(=O)[C@@H](N)C(C)C)[C@@H](C)CC)C(=O)N[C@@H](CC(C)C)C(=O)O [MAGE2.170G7]
IFNγ response compared to wildtype peptide [5]: greater than the wildtype peptide

CC[C@H](C)[C@H](NC(=O)[C@H](Cc1c[nH]cn1)NC(=O)[C@H](CC(C)C)NC(=O)[C@H](Cc1c[nH]cn1)NC(=O)[C@H](CO)NC(=O)[C@@H](NC(=O)[C@@H]1CCCN1C(=O)[C@@H](N)C(C)C)[C@@H](C)CC)C(=O)N[C@@H](CC(C)C)C(=O)O [MAGE2.170H7]
IFNγ response compared to wildtype peptide [5]: greater than the wildtype peptide

CC[C@H](C)[C@H](NC(=O)[C@H](CCSC)NC(=O)[C@H](CC(C)C)NC(=O)[C@H](Cc1c[nH]cn1)NC(=O)[C@H](CO)NC(=O)[C@@H](NC(=O)[C@@H]1CCCN1C(=O)[C@@H](N)C(C)C)[C@@H](C)CC)C(=O)N[C@@H](CC(C)C)C(=O)O [MAGE2.170M7]
IFNγ response compared to wildtype peptide [5]: greater than the wildtype peptide

CC[C@H](C)[C@H](NC(=O)[C@H](CCC(=O)O)NC(=O)[C@H](C)NC(=O)[C@@H](NC(=O)[C@@H](N)CCCCN)C(C)C)C(=O)N[C@H](C(=O)N[C@@H](Cc1c[nH]cn1)C(=O)N[C@@H](Cc1ccccc1)C(=O)N[C@@H](CC(C)C)C(=O)O)C(C)C [MAGE3.112 I5]
Th2 cytokines: minimum peptide concentration required to induce 50 pg/ml of IL10 or IL15 [1]: NS (NS, cytokine levels not significant (<5 pg/ml)) | peptide dose giving significant IFNγ release (>100 pg/well) [2]: 0.1 ng/mL | Th1 cytokines: minimum peptide concentration required to induce 100 pg/well of IFNγ [2]: 10^−4 μg/ml

CC(C)C[C@H](NC(=O)[C@H](Cc1ccccc1)NC(=O)[C@H](Cc1c[nH]c2ccccc12)NC(=O)[C@@H](NC(=O)[C@H](CC(C)C)NC(=O)[C@H](CCC(=O)O)NC(=O)[C@H](C)NC(=O)[C@@H](NC(=O)[C@@H](N)CCCCN)C(C)C)C(C)C)C(=O)O [MAGE3.112 W7]
peptide dose giving significant IFNγ release (>100 pg/well) [2]: 0.1 ng/mL

CMPPPGTRV (p53.149M2 C1) [analog of p53.149M2]
fold lower concentration than wildtype peptide inducing significant IFNγ production [6]: 10 fold | IFNγ release at suboptimal dose [6]: 100 pg/well | fold lower peptide concentration than wildtype inducing significant IL10 levels [7]: 100 fold

GLTPPEHLIRV (p53.Mu184 T3, E6) [p53.Mu.184 T3,E6, analog of p53.Mu.184]
immunogenicity relative to wildtype p53mu.184 [6]: enhanced immunogenicity

GLTPPQHLIRV (p53.Mu184 T3) [p53.Mu.184 T3, analog of p53.Mu.184]
immunogenicity relative to wildtype p53mu.184 [6]: enhanced immunogenicity

HBV Pol.455 P7 (peptide)
IC50 [8]: 267 nM

LLDRDSFEV (p53.261 D3) [predicted analog of p53.261]
peptide concentration giving IFNγ production of 100 pg/well, compared to CTL induced and expanded with wildtype peptide [9]: much lower peptide concentrations | fold lower dose of wildtype peptide to induce 100 pg/well of IFNγ [9]: 1000 fold | response of analog-raised CTL lines to endogenous p53.261 epitope [10]: responded to the endogenous epitope expressed by a Meth A/A2.1K^b tumor cell clone but not to the parental HLA-A2.1-negative Meth A tumor cell line

LLGRDSFEV (p53.261) [reference compound]
wildtype peptide dose inducing 100 pg/well IFNγ ([9]; CTL immunized and restimulated with wildtype peptide): 0.1 to 10 µg/mL | Elispot spots of wildtype peptide-reactive cells [11]: 15 spots/10^6

LLGRDSHEV (p53.261 H7) [predicted analog of p53.261]
peptide concentration giving IFNγ production of 100 pg/well, compared to CTL induced and expanded with wildtype peptide [9]: much lower peptide concentrations | Elispot spots of wildtype peptide-reactive cells [11]: 12 spots/10^6

LLGRDSLEV (p53.261 L7) [predicted analog of p53.261]
peptide concentration giving IFNγ production of 100 pg/well, compared to CTL induced and expanded with wildtype peptide [9]: much lower peptide concentrations | fold lower dose of wildtype peptide to induce 100 pg/well of IFNγ [9]: 10 fold

LLGRGSFEV (p53.261 G5) [predicted analog of p53.261]
peptide concentration giving IFNγ production of 100 pg/well, compared to CTL induced and expanded with wildtype peptide [9]: much lower peptide concentrations

LLHRDSFEV (p53.261 H3) [predicted analog of p53.261]
peptide concentration giving IFNγ production of 100 pg/well, compared to CTL induced and expanded with wildtype peptide [9]: much lower peptide concentrations | fold lower dose of wildtype peptide to induce 100 pg/well of IFNγ [9]: 100 fold | response of analog-raised CTL lines to endogenous p53.261 epitope [10]: responded to the endogenous epitope expressed by a Meth A/A2.1K^b tumor cell clone but not to the parental HLA-A2.1-negative Meth A tumor cell line

SMPPPGPRV (p53.149M2 P7) [analog of p53.149M2]
fold lower concentration than wildtype peptide inducing significant IFNγ production [6]: 10 fold | IFNγ release at suboptimal dose [6]: 100 pg/well

B1: CEA.691 M3 (peptide)
peptide: IMMGVLVGV
modifications: not checked
IC50 [12]: 27 nM

B2: MAGE2.157 F5 (peptide)
peptide: YLQLFFGIEV
modifications: not checked
IC50 [12]: 212 nM

B3: CEA.691 H5 (peptide)
peptide: IMIGHLVGV
modifications: not checked
IC50 [12]: 16 nM

B4: MAGE2.157 I5 (peptide)
peptide: YLQLIFGIEV
modifications: not checked
IC50 [12]: 476 nM

B5: MAGE3.112 I5 (peptide)
peptide: KVAEIVHFL
modifications: not checked
IC50 [12]: 66 nM

B6: CEA.691 (peptide)
peptide: IMIGVLVGV
modifications: not checked
IC50 [12]: 54 nM
